Ab-91 heavy chain CDR variants: yeast mating affinities

Antigen: PDVDLGDISGINAS, a 14-residue peptide of the SARS-CoV-2 spike HR2 region.

Parent: Ab-91, a human scFv built as VL, a 15-residue (Gly4Ser)3 linker, VH. Only the CDRs of the heavy chain vary.
VL: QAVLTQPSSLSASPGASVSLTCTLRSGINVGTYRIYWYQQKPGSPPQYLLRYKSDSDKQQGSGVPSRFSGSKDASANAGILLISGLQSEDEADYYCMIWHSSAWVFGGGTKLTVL
VH: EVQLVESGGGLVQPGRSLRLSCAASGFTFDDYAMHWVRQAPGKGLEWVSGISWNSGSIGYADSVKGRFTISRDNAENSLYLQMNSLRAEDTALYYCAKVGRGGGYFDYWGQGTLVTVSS

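Phage display of a naive human antibody library on the peptide gave the parent. Variants in AAYL51 differ from the parent at up to three CDR positions; double and triple changes were sampled at random. Affinity was read by AlphaSeq, a pooled yeast mating assay with surface-displayed partners. Binding brings cells together so that they mate, and sequencing counts the barcode pairs among the diploids. Scores were corrected for input abundance and mapped to Kd with protein pairs of known affinity run in the same pool. The assay was run in three technical replicates.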

Changes read parent residue, position, new residue, counted from the first residue of the VH shown. Every variant below is changed at G56 of the VH (sequential numbering). Kd is apparent (estimated from mating counts) and averaged on the log scale over replicates with a signal. Smaller is tighter. A pair that was not seen in any replicate is written "no signal"; this usually means weak binding, but a binder can also be missed. As a blank, each scFv also met three strains without target: over library AAYL51, 21% of these pairings were detected, typically at 34 µM and seldom below 1.8 µM.

For G56K+I58M+A61H, the assay gave 5.2 µM (1 of 3 replicates).
For G50C+G56L+A61P, the assay gave no signal (0 of 3 replicates).
For G56S+R101W, the assay gave 3.4 µM (1 of 3 replicates).
For N54S+G56S+K65S, the assay gave 32 nM (3 of 3 replicates).
For M34Q+G56P+D62Q, the assay gave no signal (0 of 3 replicates).
For W53G+G56C+Y105P, the assay gave 82 µM (2 of 3 replicates).
For G26K+G56P+G103N, the assay gave no signal (0 of 3 replicates).
For G56A+S57Y, the assay gave 20 µM (3 of 3 replicates).
For H35V+G56V+G103I, the assay gave 4.4 µM (2 of 3 replicates).
For H35W+G56A+A61T, the assay gave no signal (0 of 3 replicates).
For G56S+V64K+D107V, the assay gave 31 µM (2 of 3 replicates).
For A33E+G56F+V64W, the assay gave 3.2 µM (1 of 3 replicates).
For D30Y+G56H+Y108A, the assay gave 28 nM (3 of 3 replicates).
For G56W+S57Y+D107H, the assay gave 20 nM (3 of 3 replicates).
For F29K+S52V+G56T, the assay gave 1.2 µM (1 of 3 replicates).
For D30A+G56H+S63N, the assay gave 11 nM (3 of 3 replicates).
For D30H+A33S+G56M, the assay gave 29 nM (3 of 3 replicates).
For F29V+G56Y+S63M, the assay gave 2.5 µM (3 of 3 replicates).
For N54H+G56L+Y60E, the assay gave no signal (0 of 3 replicates).
For G56C, the assay gave 160 nM (3 of 3 replicates).
For T28Q+G56D+A61W, the assay gave 99 nM (1 of 3 replicates).
For G56F+F106K, the assay gave 5.2 nM (3 of 3 replicates).
For T28Y+G56K+R101T, the assay gave 890 nM (1 of 3 replicates).
For I51R+S52E+G56W, the assay gave 18 µM (1 of 3 replicates).
For G56L+D107A, the assay gave 130 nM (3 of 3 replicates).
For G26E+Y32K+G56Q, the assay gave 63 µM (1 of 3 replicates).
For G56W+V99P, the assay gave 14 µM (1 of 3 replicates).
For G56D+S63T, the assay gave 150 µM (2 of 3 replicates).
For H35P+G56E+G59V, the assay gave 250 µM (2 of 3 replicates).
For A33V+S52V+G56A, the assay gave 620 µM (1 of 3 replicates).
For G26W+G56P+G102S, the assay gave 6.1 µM (1 of 3 replicates).

The first 2 entries again:

changes	Kd (apparent)	detected
G56K+I58M+A61H	5.2 µM	1 of 3
G50C+G56L+A61P	no signal	0 of 3

From the AlphaSeq antibody data of Engelhart et al. 2022 (doi:10.1038/s41597-022-01779-4), copy in the FLAb collection.